Earlier results, collected in patent US7604939B2, “Methods of identifying active BRM expression-promoting HDAC inhibitors” (The Regents of the University of Michigan, priority 2005, dated 2009).

Protein sequences, listed by entry. Tags and fused reporters are not part of them.
UniProt Q9BY41, whole entry: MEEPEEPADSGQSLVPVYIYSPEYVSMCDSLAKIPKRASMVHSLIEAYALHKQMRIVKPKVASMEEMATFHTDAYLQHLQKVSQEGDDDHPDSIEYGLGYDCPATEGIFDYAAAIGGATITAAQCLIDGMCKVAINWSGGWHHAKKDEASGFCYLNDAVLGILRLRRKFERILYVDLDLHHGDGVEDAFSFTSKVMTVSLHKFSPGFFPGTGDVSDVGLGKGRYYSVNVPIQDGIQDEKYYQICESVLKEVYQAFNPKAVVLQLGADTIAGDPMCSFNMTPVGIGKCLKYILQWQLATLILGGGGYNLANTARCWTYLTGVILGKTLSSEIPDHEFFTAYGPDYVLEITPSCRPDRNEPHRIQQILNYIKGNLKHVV
UniProt Q13547, whole entry: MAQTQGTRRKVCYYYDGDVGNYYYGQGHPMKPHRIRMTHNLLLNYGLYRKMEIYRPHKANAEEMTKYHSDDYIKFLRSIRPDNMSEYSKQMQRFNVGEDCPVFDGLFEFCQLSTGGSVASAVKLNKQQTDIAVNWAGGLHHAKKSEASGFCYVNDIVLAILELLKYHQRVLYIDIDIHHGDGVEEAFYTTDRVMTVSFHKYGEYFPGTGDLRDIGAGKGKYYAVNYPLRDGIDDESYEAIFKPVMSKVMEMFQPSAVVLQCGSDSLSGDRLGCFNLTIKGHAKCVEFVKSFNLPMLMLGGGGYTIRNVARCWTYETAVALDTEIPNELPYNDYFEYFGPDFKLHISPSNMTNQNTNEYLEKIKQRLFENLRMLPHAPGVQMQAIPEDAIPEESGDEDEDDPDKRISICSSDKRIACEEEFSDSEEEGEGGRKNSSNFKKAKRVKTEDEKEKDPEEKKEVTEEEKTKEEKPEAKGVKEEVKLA

Tests used:
HDAC8 = HDAC8 (Homo sapiens, UniProt Q9BY41); details: Class 1 HDAC; cited from earlier work
HDAC1 = HDAC1 (Homo sapiens, UniProt Q13547); details: Class 1 HDAC; cited from earlier work

O=C1N[C@@H](Cc2ccccc2)C(=O)N2CCCC[C@@H]2C(=O)N[C@@H](CCCCCC(=O)[C@@H]2CO2)C(=O)N[C@H]1Cc1ccccc1
Sensitivity of HDAC8 to the inhibitor (HDAC8): No:
Sensitivity of HDAC1 to the inhibitor (HDAC1): Yes
